# High-throughput results: PubChem, Broad Institute
# Vif imaging – inhibitors of HIV Vif. HEK293T cells, Vif self-association by quenched fluorescence, imaging, 24 h. AID 602346. inhibition, % at 7.49 µM. 0.35% of 340,000 active; in the data active = inhibition above about 50%, passing the limit was not always enough; inconclusive = no clear call, values can overlap the other calls; inactive = below about 31%
# CAL PDZ FP-1 – human CAL PDZ-peptide interaction inhibition. Q9HD26. purified CAL PDZ, TMR-peptide fluorescence polarization, 1 h. inhibition, % at 20 µM. 0.02% of 330,000 active. AID 504414;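 active = highest replicate inhibition of at least 40%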;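 also: plate controls were DMSO neutral control wells for no effect and unlabeled competitor peptide control wells for full effect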
#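 System: purified tagged CAL PDZ domain construct (CerCALP). Schedule: 1 h incubation at room temperature before polarization reading. Medium: 25 mM sodium phosphate pH 7.4, 150 mM NaCl, TCEP, IgG, Thesit. Read-out: percent inhibition from loss of millipolarization. Measured by: FP readout, S and P plane fluorescence. Probe or stimulus: fluorescent TMR peptide probe.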
# ARNT-TACC3 inh – disruptors of human ARNT/TACC3 interaction. 0.66% of 390,000 active. Q9Y6A5. AlphaScreen His-ARNT PAS-B/GST-TACC3 binding, luminescence; TACC3 fragment carries E629A point mutation. inhibition, % at 9.99 µM;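 active = mean inhibition of replicates at least 50% and at least half of replicates each reaching 50%; inconclusive = half or more replicates reach 50% but mean below 50%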;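 also: 0% = complete ARNT plus TACC3 wells and 100% = ARNT alone without TACC3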
# UUG fidelity – alters start codon recognition fidelity in yeast. S. cerevisiae UUG-firefly luciferase reporter, luminescence/redox ratio. 350,000 tested, 0.13% active. activity score, % at 18.7 µM. AID 602363;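 active means replicate mean at a twofold rise or more, about +100% in these data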;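 further: firefly luciferase made from a UUG start codon reports start codon fidelity; reporter light over untreated wells divided by growth signal over untreated wells; some hits fall short of that in this replicate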
# CAL PDZ FP-2 – blocks peptide binding to the human CAL PDZ domain | purified CAL PDZ, TMR-peptide fluorescence polarization, 1 h | inhibition, % at 24.9 µM | 0.92% of 300,000 active;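 active = mean inhibition of at least 30% with at least half of replicates also reaching 30%; inconclusive = no clear call, values can overlap the other calls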;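 also: 0% = DMSO neutral control and 100% = excess unlabeled competitor peptide PRC23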
# PglD DTNB – inhibitors of Campylobacter jejuni PglD acetyltransferase | inhibition, % at 12.5 µM | 0.098% of 360,000 active | purified PglD enzyme, DTNB colorimetric CoA detection; in the data active = inhibition above about 16%, passing the limit was not always enough; inconclusive = no clear call, values can overlap the other calls
# * marks the source's active call; other numbers are inactive results; u = inconclusive; x = no result; ! = not confirmed by another sample. Sampled rows, rich in hits. Any-hit rate of the full collection: about 1.6%.
no. | ARNT-TACC3 inh | molecule | CAL PDZ FP-2 | Vif imaging | PglD DTNB | CAL PDZ FP-1 | UUG fidelity
1 | -4 | CC(O)(c1ccccc1)c1ccc2ccccc2n1 (stereo not drawn) | 45* | -15 | x | -1 | x
2 | 30 | C[C@@H](NC(=O)[C@H]1[C@H](CO)[C@H]2Cn3c(ccc(-c4ccccc4F)c3=O)[C@@H]1N2C)c1ccccc1 | x | x | -3 | x | x
3 | 1 | CN(C(=O)c1ccnn1C)C1CCCN(Cc2ccccc2F)C1 (stereo not drawn) | 45* | x | -2 | 0 | -14
4 | -3 | O=C1NC2(CCCCCC2)C(=O)N1Cc1ccccc1Br | 48* | -5 | 5 | 0 | -5
5 | -7 | CN(Cc1ccccc1Br)C(=O)CN1C(=O)NC2(CCCCCC2)C1=O | 39* | -6 | -1 | 0 | 0
6 | -5 | CN(Cc1ccccc1)C(=O)CN1C(=O)NC2(CCCC2)C1=O | -1 | -2 | -1 | -1 | -12
7 | 7 | COc1ccc(CN(C)C[C@H]2Oc3ccc(NS(=O)(=O)c4cn(C)cn4)cc3C(=O)N([C@H](C)CO)C[C@@H]2C)cc1 | x | x | -2 | x | -11
8 | -4 | CCOC(=O)c1[nH]ncc1[C@@H]1C[C@H]2CN(Cc3cccc(Cl)c3)C(=O)[C@]23CCCN13 | 46* | -2 | 0 | -1 | 9
9 | x | CN1CCN(C(=O)C[C@H]2CC[C@H](NS(=O)(=O)c3cccc(F)c3)[C@H](CO)O2)CC1 | x | x | 0 | x | -9
10 | -11 | Cc1ccc(S(=O)(=O)N(C)CC(=O)NCCCn2nc(C)cc2C)cc1 | 62* | 7 | -6 | 1 | -19

# The list goes on; it opens with the six that closed the last part.
no. | ARNT-TACC3 inh | molecule | CAL PDZ FP-2 | Vif imaging | PglD DTNB | CAL PDZ FP-1 | UUG fidelity
5 | -7 | CN(Cc1ccccc1Br)C(=O)CN1C(=O)NC2(CCCCCC2)C1=O | 39* | -6 | -1 | 0 | 0
6 | -5 | CN(Cc1ccccc1)C(=O)CN1C(=O)NC2(CCCC2)C1=O | -1 | -2 | -1 | -1 | -12
7 | 7 | COc1ccc(CN(C)C[C@H]2Oc3ccc(NS(=O)(=O)c4cn(C)cn4)cc3C(=O)N([C@H](C)CO)C[C@@H]2C)cc1 | x | x | -2 | x | -11
8 | -4 | CCOC(=O)c1[nH]ncc1[C@@H]1C[C@H]2CN(Cc3cccc(Cl)c3)C(=O)[C@]23CCCN13 | 46* | -2 | 0 | -1 | 9
9 | x | CN1CCN(C(=O)C[C@H]2CC[C@H](NS(=O)(=O)c3cccc(F)c3)[C@H](CO)O2)CC1 | x | x | 0 | x | -9
10 | -11 | Cc1ccc(S(=O)(=O)N(C)CC(=O)NCCCn2nc(C)cc2C)cc1 | 62* | 7 | -6 | 1 | -19
11 | -4 | O=C1CN(C(=S)NC(=O)c2ccc(-c3ccccc3)cc2)CCN1 | 43* | 16 | x | -1 | x
12 | -3 | Cc1ccc(-n2c([O-])nc(-[n+]3ccccc3)c2C=O)cc1 | -3 | 51* | 0 | -3 | -20
13 | -1 | COc1ccccc1-c1cnc2c(c1)C(=O)N([C@@H](C)CO)C[C@@H](C)[C@@H](CN(C)Cc1cccnc1)O2 | x | x | 10 | x | 4
14 | 68* | CCn1nc(C(=O)NNS(=O)(=O)c2ccc(C)cc2)c2ccccc2c1=O | -3 | -2 | -7 | 1 | -10
15 | -4 | COc1ccc(N2C(=O)CCC(C(=O)N3CCCCC3)C2c2ccc(F)cc2)cc1 (stereo not drawn) | 59* | 4 | x | -1 | 12
16 | -6 | COc1ccc(N2C(=O)CCC(C(=O)N3CCC(C(N)=O)CC3)C2c2ccc(F)cc2)cc1 (stereo not drawn) | -1 | -22 | 3 | -1 | -7
17 | -5 | CCN(CC)S(=O)(=O)c1ccc(N2CCCC2)c(NC(=O)C2CCCCC2)c1 | 40* | -15 | x | 0 | x
18 | -3 | CCN(CC)S(=O)(=O)c1ccc(NC(=S)NC(=O)C2CCC2)cc1 | 54* | x | 1 | -1 | 8
19 | -1 | CN1CCN(c2ccc(S(=O)(=O)N3CCOCC3)cc2NC(=O)C2CCCCC2)CC1 | 11 | 9 | -1 | 0 | -7
20 | x | CCN1CCN(c2ccc(S(=O)(=O)N3CCOCC3)cc2NC(=O)C2CCC(C(C)(C)C)CC2)CC1 (stereo not drawn) | 73* | 0 | 1 | -1 | 5

# Additional records follow:
no. | ARNT-TACC3 inh | molecule | CAL PDZ FP-2 | Vif imaging | PglD DTNB | CAL PDZ FP-1 | UUG fidelity
21 | -6 | CN(C)S(=O)(=O)c1ccc(NC(=S)NC(=O)C2CCC2)cc1 | -3 | 21 | 1 | 1 | -16
22 | -14 | CCNC(=O)[C@H]1[C@H](CO)[C@H]2Cn3c(ccc(-c4ccccc4F)c3=O)[C@@H]1N2Cc1cccnc1 | x | x | 1 | x | x
23 | 73*! | NCCc1cnc[nH]1 | -2 | u | -5 | 0 | -25
24 | active | O=C(Nc1ccsc1C(=O)O)c1ccc(Cl)cc1 | -6 | -7 | -4 | -1 | -18
25 | 4 | Cc1ccc(C(=O)Nc2ccsc2C(=O)O)cc1 | -2 | 5 | x | 0 | x
26 | -9 | Cc1noc(C)c1NC(=O)N(C)C[C@@H]1OCCCC[C@H](C)Oc2ccc(NC(=O)c3ccncc3)cc2C(=O)N([C@H](C)CO)C[C@H]1C | x | x | -2 | x | 1
27 | 1 | O=C(CC(=O)N/N=C/c1ccccc1)NCc1ccccc1 | 147* | 17 | x | -1 | x
28 | -1 | O=C(Cc1ccccc1)NN=Cc1ccccc1 | 1 | 3 | 3 | 0 | -30
29 | -8 | Cc1ccc(S(=O)(=O)Nc2ccc3c(c2)C(=O)N([C@H](C)CO)C[C@@H](C)[C@@H](CN(C)C(=O)CCCN(C)C)OCCCC[C@H](C)O3)cc1 | x | x | -5 | x | 23
30 | -2 | CCCCN(C)CCNC(=O)c1cc2c(-c3ccccc3F)nn(C)c2s1 | 43* | -8 | 4 | -4 | -3

# The list goes on:
no. | ARNT-TACC3 inh | molecule | CAL PDZ FP-2 | Vif imaging | PglD DTNB | CAL PDZ FP-1 | UUG fidelity
31 | -11 | CCOC(=O)c1cnn(-c2ccc([N+](=O)[O-])cc2)c1N | 60* | 0 | -6 | 0 | -19
32 | 3 | C[C@H]1CN([C@@H](C)CO)S(=O)(=O)c2ccc(C#Cc3ccccc3)cc2O[C@H]1CN(C)S(C)(=O)=O | x | x | -1 | x | -3
33 | -3 | O=C(NC1CCC1)[C@@H]1[C@@H](CO)[C@@H]2Cn3c(ccc(-c4ccncc4)c3=O)[C@H]1N2CC1CC1 | x | x | -4 | x | x
34 | -2 | COc1ccc(Nc2ncc(C(=O)N3CCC(C(N)=O)CC3)c3ccccc23)cc1 | 71* | 13 | -3 | -1 | -9
35 | -3 | Cc1c(NS(=O)(=O)c2cc(C(=O)NCc3cccnc3)ccc2Cl)c(=O)n(-c2ccccc2)n1C | 82* | 0 | -1 | 0 | -5
36 | 113* | Oc1c(Br)cc(Br)cc1CNc1cccc2cccnc12 | x | -6 | 8 | 1 | 2
37 | 37 | Cc1ccc(O)c(CNc2cccc3cccnc23)c1 | -1 | 3 | x | 0 | x
38 | 49* | Oc1ccc(Br)cc1CNc1cccc2cccnc12 | -5 | 1 | -3 | 0 | -17
39 | 23 | COc1cccc(CNc2cccc3cccnc23)c1O | x | -3 | -1 | -2 | -17
40 | -1 | COc1ccc(-c2coc3cc(O)ccc3c2=O)cc1 | -3 | 57* | -2 | 0 | -21

# More results follow:
no. | ARNT-TACC3 inh | molecule | CAL PDZ FP-2 | Vif imaging | PglD DTNB | CAL PDZ FP-1 | UUG fidelity
41 | 32 | COc1ccc(-c2coc3cc(OC)ccc3c2=O)cc1 | -2 | 2 | 1 | 0 | -4
42 | -6 | C[C@H](CO)N1C[C@H](C)[C@H](CN(C)C(=O)Nc2ccc(F)cc2)OCCCC[C@H](C)Oc2ccc(NC(=O)c3ccncc3)cc2C1=O | x | x | 2 | x | 7
43 | -3 | O=[N+]([O-])c1cccc(-c2c[n+]3c(n2-c2ccccc2)SCC3)c1 | 48* | 3 | x | -1 | x
44 | 63* | COC(=O)c1cn(NC(=O)c2cnccn2)c(=O)c2ccccc12 | 0 | 4 | -1 | 1 | -40
45 | -3 | COC(=O)c1cn(NC(=O)Cc2cccc(OC)c2)c(=O)c2ccccc12 | 34* | -18 | 3 | -1 | -8
46 | -2 | COC(=O)c1cn(NC(=O)c2ccc(OC)c(OC)c2)c(=O)c2ccccc12 | -1 | 0 | 3 | 0 | -14
47 | x | COc1cc(OC)cc(C(=O)Nn2cc(C(=O)Nc3ccccc3F)c3ccccc3c2=O)c1 | 4 | 0 | 2 | -1 | 2
